{"source": "paper PMC12197275", "about": "“Preclinical Pharmacokinetic Evaluation of Mithramycin and Mithramycin SA Tryptophan-Conjugated Analog” (Pharmaceutics, 2025)", "key": {"[1]": {"settings": "male Cynomolgus monkeys, two cassette microdose levels"}, "[2]": {"settings": "female athymic nude mice"}}, "data": [{"substance": "mithramycin SA-Trp [MTMSA-Trp]", "values": [{"measurement": "clearance lower, fold difference relative to MTM", "setting": "[1]", "value": "2.5~7 fold"}, {"measurement": "clearance at 0.3 mg/kg, fold higher than average at 1–10 mg/kg", "setting": "[2]", "value": "approximately 1.7 fold"}]}]}
